A549 viability: kills or reduces viability of A549 cells in Nrf2 counter-screen; Potency, µM (top dose mostly 46 µM), for inactives: at the highest dose activity change, negative = cytotoxicity, hits mostly inhibitors; actives 0.16% (n = 390,000); AID 504648; A549 ARE-Fluc cells, CellTiter-Fluor viability, 18-24 h; note: potency is the fitted concentration of half-maximal effect; % is set by controls: 0 for no effect and ±100 for the full control effect
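A549 ARE_Fluc cells in 5% FBS OPTI-MEM were exposed to compounds in concentration-response for 18-24 h at 37 deg C. Viability was read by CellTiter-Fluor fluorescence (Ex 405/Em 525) after 30 min, before the luciferase read.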
Mito fusion yeast: mitochondrial division inhibition or fusion activation; actives 0.23% (n = 320,000); AID 485298; Potency, µM (titrated, usually from 46.1 µM), without a hit: at the highest dose growth rescue (activation), usual class: activators; S. cerevisiae fusion-defective mutant growth rescue, CellTiterGlo 48 h; note: potency is the fitted concentration of half-maximal effect; % of control where 0% means no effect; nearly all actives have a fitted effect of over 45% in size
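Luminescent cell viability in 1536-well qHTS format served as the measure of rescued growth in ts fusion-mutant S. cerevisiae cultured on non-fermentable YPEG for 48 hours at 37C.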
miR-21 reporter: raises the signal of a miR-21 reporter; 340,000 tested, under 10 active; HeLa miR-21 FLuc reporter, luciferase, 48 h; Potency, µM (highest dose often 38.3 µM), without a hit: top-dose reporter change, positive = more light; active = well fitted rising curve with a large enough effect; inconclusive = small, poorly fitted or top-dose-only effect; inactive = no such curve, though single readings can be large or run the other way;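 also: % of control where 0% means no effect; miR-21 action dims this reporter so a rising signal means less miR-21 action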
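HeLa cells stably expressing CMV-driven firefly luciferase with a downstream miR-21 binding sequence, endogenously expressing miR-21, were treated with titrations (up to about 40uM final) for 48 hours at 37 degree Celsius. Luciferase luminescence was read after lysis.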
Nrf2 ARE act: activators of Nrf2 (ARE) signaling; actives 0.31% (n = 410,000); Potency, µM (doses to about 46.1 µM), inactives show top-dose activation, actives largely listed as activators; AREc32 ARE-luciferase reporter (MCF7-derived line), luminescence, 24 h; note: potency is the fitted concentration of half-maximal effect; % of control where 0% means no effect; nearly all actives have a fitted effect of over 65% in size
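Each well held 1000 AREc32 cells, which were incubated with compound for 24 hr at 37 deg C after overnight attachment, and ARE reporter activity was quantified by firefly luciferase luminescence.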
GRP78 ERSR act: ER stress response induction in glioma | U87-MG GRP78 promoter luciferase reporter, 16 h | Potency, µM, for inactives: at the top dose activation, actives largely listed as activators | actives 0.02% (n = 420,000) | AID 602332; note: potency is the fitted concentration of half-maximal effect; series mostly up to about 76 µM; % of control where 0% means no effect; nearly all actives have a fitted effect of over 35% in size
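Stably transfected U87-MG human glioma cells carrying a GRP78-based luminescent sensor were seeded at 1000 cells/well, pin-dosed with compounds and incubated 16 h. Luciferase reagent was then added, and end-point luminescence was read after 10 min at room temperature.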
Nrf2 block: Nrf2 pathway inhibition; A549 ARE-Fluc reporter, luciferase luminescence, 18-24 h; Potency, µM (titrated, usually from 46 µM), without a hit: top-dose activity change, negative = inhibition, usual class: inhibitors; actives 2.1% (n = 360,000); AID 504444; note: potency is the fitted concentration of half-maximal effect; % is set by controls: 0 for no effect and ±100 for the full control effect; nearly all actives have a fitted effect of over 60% in size
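Nrf2 activity is the BugLite luminescence, read 15 min after reagent at room temperature, following CellTiter-Fluor cytotoxicity readout (30 min, 37C). Compound titrations were applied for 18-24 h to 5000 A549 ARE_Fluc cells/well in 5% FBS OPTI-MEM.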
* marks the source's active call; other numbers are inactive results. Sampled rows, rich in hits. Any-hit rate of the full collection: about 2.3%. Unless noted, calls come from the whole dose curve; as a rule, active = well fitted curve in the direction sought with a large enough effect; inconclusive = small, poorly fitted or top-dose-only effect, or another doubt; inactive = no such curve, though single readings can be large; an effect the other way counts as inactive or inconclusive.

Screening CCOc1ccc(NC(=O)C2CCCN(c3c(CC)c(C)nc4ncnn34)C2)cc1 (configuration not stated) returned A549 viability -14%, Mito fusion yeast -2%, miR-21 reporter 3%, Nrf2 ARE act 0%, GRP78 ERSR act inconclusive and Nrf2 block 10µM*.
`CCOc1ccc(NC(=O)C2CCCN(c3nn4cc(-c5ccc(OC)cc5)nc4s3)C2)cc1` (configuration not stated) gave A549 viability -1%, miR-21 reporter 24%, Nrf2 ARE act -1%, GRP78 ERSR act -4% and Nrf2 block 7.3µM*.
`CCc1c(C)nc2ncnn2c1N1CCC(C(=O)NCc2cccs2)CC1` gave A549 viability -1%, Mito fusion yeast 3%, miR-21 reporter -6%, Nrf2 ARE act 1%, GRP78 ERSR act 1% and Nrf2 block 18µM*.
CSc1ccc(NC(=O)Nc2ccccc2C(N)=O)cc1 was read as A549 viability 21%, Mito fusion yeast 13%, miR-21 reporter -53%, Nrf2 ARE act 4%, GRP78 ERSR act 6% and Nrf2 block -1%.
Cc1nc(-n2cc(F)c(=O)[nH]c2=O)c2nc(C)oc2n1 was read as A549 viability -4%, Mito fusion yeast -3%, miR-21 reporter -6%, Nrf2 ARE act 0%, GRP78 ERSR act 9% and Nrf2 block inconclusive.
Screening NNC(=O)c1oc2nc(-c3ccco3)cc(-c3ccco3)c2c1N returned A549 viability -18%, Mito fusion yeast 1%, miR-21 reporter 7%, Nrf2 ARE act 7%, GRP78 ERSR act -2% and Nrf2 block inconclusive.
`NNC(=O)c1oc2nc(-c3ccc(Cl)cc3)cc(-c3ccccc3)c2c1N` gave A549 viability 20%, Mito fusion yeast 6%, miR-21 reporter -4%, Nrf2 ARE act 0%, GRP78 ERSR act 5% and Nrf2 block 10µM*.
For O=C(CSc1nnc(-c2ccc(F)cc2)o1)N1CCCC1 the results were A549 viability 0%, Mito fusion yeast -1%, miR-21 reporter -20%, Nrf2 ARE act 0%, GRP78 ERSR act -1% and Nrf2 block inconclusive.
For COc1ccc(-n2c(C)cc(C3=NNC(=NC4CC4)SC3)c2C)cc1 the results were A549 viability 4%, Mito fusion yeast -4%, miR-21 reporter -45%, Nrf2 ARE act 7%, GRP78 ERSR act 1% and Nrf2 block inconclusive.
For COCCn1c(C)cc(C2=NNC(=NC3CC3)SC2)c1C the results were A549 viability -9%, Mito fusion yeast 4%, miR-21 reporter inconclusive, Nrf2 ARE act -3%, GRP78 ERSR act -14% and Nrf2 block 0.58µM*.
Cc1cc(C2=NNC(=NC3CC3)SC2)c(C)n1-c1ccccc1 was read as A549 viability 0%, Mito fusion yeast -6%, miR-21 reporter inconclusive, Nrf2 ARE act -3%, GRP78 ERSR act -13% and Nrf2 block 6.5µM*.
`CN=C1NN=C(c2cc(C)n(-c3c(C)n(C)n(-c4ccccc4)c3=O)c2C)CS1` gave A549 viability 0%, Mito fusion yeast 32µM*, miR-21 reporter -4%, Nrf2 ARE act -1%, GRP78 ERSR act -2% and Nrf2 block 17%.
Screening COc1ccc(C(=O)Oc2ccc(=O)n(-c3ccccc3)n2)cc1 returned Mito fusion yeast -2%, miR-21 reporter 0%, Nrf2 ARE act 0%, GRP78 ERSR act -4% and Nrf2 block 1.6µM*.
O=C(Oc1ccc(=O)n(-c2ccccc2)n1)c1ccc(Cl)cc1 was read as A549 viability -9%, Mito fusion yeast 3%, miR-21 reporter -1%, Nrf2 ARE act 1%, GRP78 ERSR act -6% and Nrf2 block -9%.
`Cc1nc2cc(NS(=O)(=O)c3cccc4cccnc34)ccc2s1` gave A549 viability 1%, Mito fusion yeast 5%, miR-21 reporter 11%, Nrf2 ARE act 1%, GRP78 ERSR act -4% and Nrf2 block 26µM*.

A section from further up, as a working copy:
Screening CCOc1ccc(NC(=O)C2CCCN(c3c(CC)c(C)nc4ncnn34)C2)cc1 (configuration not stated) returned A549 viability -14%, Mito fusion yeast -2%, miR-21 reporter 3%, Nrf2 ARE act 0%, GRP78 ERSR act inconclusive and Nrf2 block 10µM*.
`CCOc1ccc(NC(=O)C2CCCN(c3nn4cc(-c5ccc(OC)cc5)nc4s3)C2)cc1` (configuration not stated) gave A549 viability -1%, miR-21 reporter 24%, Nrf2 ARE act -1%, GRP78 ERSR act -4% and Nrf2 block 7.3µM*.

Bioassay records as filed in PubChem BioAssay.
